# Apparent affinities of Ab-95 variants for a coronavirus HR2 peptide

Source: Engelhart et al. 2022 (doi:10.1038/s41597-022-01779-4), MIT Lincoln Laboratory and A-Alpha Bio; data file from the FLAb repository.

The target is the same throughout: PDVDLGDISGINAS, from the HR2 region of SARS-CoV-2 spike.

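The starting antibody came from a phage panning campaign against this peptide. In library AAYL52, one, two or three CDR residues were substituted; doubles and triples were drawn at random. Affinity was read by AlphaSeq, a pooled yeast mating assay with surface-displayed partners. Mating (16 h, 30 °C) was followed by selection of diploids and sequencing of their barcodes. The ratio of observed to expected reads was calibrated, replicate by replicate, on BCL2-family standards whose Kd was known from biolayer interferometry. Each pool was mated in three replicate cultures.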

The variants keep the heavy chain, the linker and the frameworks of Ab-95 (scFv order VH, three GGGGS repeats, VL).
VH: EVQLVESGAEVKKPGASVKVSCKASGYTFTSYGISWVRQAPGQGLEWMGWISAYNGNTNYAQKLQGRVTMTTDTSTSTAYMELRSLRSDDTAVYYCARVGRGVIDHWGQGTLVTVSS
VL: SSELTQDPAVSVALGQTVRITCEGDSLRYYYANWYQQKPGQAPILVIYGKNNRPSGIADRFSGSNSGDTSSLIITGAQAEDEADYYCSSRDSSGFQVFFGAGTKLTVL

Changes read parent residue, position, new residue, counted from the first residue of the VL shown.
Every variant below is changed at S89 of the VL (sequential numbering).
The read-out is the apparent dissociation constant on a log10 scale (nM): the lower, the stronger.
Replicates are averaged; those with no signal do not enter the mean.
A pair that was not seen in any replicate is written "nd"; this usually means weak binding, but a binder can also be missed.
In this assay the parent's reference entry averaged 2.31; its copy inside this library read 2.25.
Empty control strains, which show no peptide, gave a signal in 28% of pairings with library AAYL52; the median was 3.91 and 95% of these signals were weaker than 2.90. No background was subtracted. Also given: how often the same scFv was detected with the empty control strains.

For Y29A N33V S89R, the assay gave 4.66 (1 of 3 replicates; controls 3 of 9). For N33M K50M S89V, the assay gave 5.57 (1 of 3 replicates; controls 2 of 9). Variant A32E S89L V97L gave 4.36 (2 of 3 replicates; controls 1 of 9). For S89M S92A F95I, the assay gave 2.86 (2 of 3 replicates; controls 0 of 9). Variant E23R S55I S89P gave nd (0 of 3 replicates; controls 0 of 9). For G24V S89F G94V, the assay gave 3.41 (3 of 3 replicates; controls 5 of 9). For P54L S89E S92E, the assay gave 3.86 (3 of 3 replicates; controls 0 of 9).

Variant L27F Y31I S89H gave 4.52 (1 of 3 replicates; controls 1 of 9). Variant G49M K50Q S89Y gave nd (0 of 3 replicates; controls 0 of 9). For G24W S55H S89W, the assay gave 3.46 (1 of 3 replicates; controls 2 of 9). Variant R28K S88F S89G showed 3.12 (2 of 3 replicates; controls 0 of 9). Variant N33K S89T showed nd (0 of 3 replicates; controls 2 of 9). Variant S89E D91G showed 2.72 (3 of 3 replicates; controls 2 of 9). Variant K50P S89I gave 2.76 (3 of 3 replicates; controls 4 of 9).

Variant N52A S89W F95N gave 4.00 (3 of 3 replicates; controls 7 of 9). For G49H N52I S89G, the assay gave 4.55 (3 of 3 replicates; controls 4 of 9). Variant L27G S89L R90P showed 3.72 (2 of 3 replicates; controls 2 of 9). Variant Y30A R53L S89E showed nd (0 of 3 replicates; controls 1 of 9). Variant G49A R53K S89D gave 4.64 (1 of 3 replicates; controls 3 of 9). Variant P54A S89Q D91W gave 3.91 (1 of 3 replicates; controls 0 of 9). Variant S26Q N52V S89K showed 2.21 (3 of 3 replicates; controls 6 of 9).

Variant D25A S89C F95S gave 2.33 (3 of 3 replicates; controls 1 of 9). Variant Y30G A32R S89P gave 2.50 (3 of 3 replicates; controls 1 of 9). For E23C S89M Q96T, the assay gave 2.98 (3 of 3 replicates; controls 2 of 9). Variant G24M S55F S89K gave 5.59 (2 of 3 replicates; controls 3 of 9). With Y29K S88D S89K the result was nd (0 of 3 replicates; controls 1 of 9). For N52V S88E S89K, the assay gave 2.39 (3 of 3 replicates; controls 1 of 9). Variant Y30W P54L S89Q showed 3.10 (3 of 3 replicates; controls 4 of 9).

For R28K N52V S89T, the assay gave 1.76 (3 of 3 replicates; controls 6 of 9). Variant S89G D91T S92R gave 3.37 (3 of 3 replicates; controls 4 of 9). With S55Q S89E Q96M the result was 2.23 (3 of 3 replicates; controls 2 of 9). For S89H R90T D91R, the assay gave 4.02 (2 of 3 replicates; controls 2 of 9). With N51S S89Q F95D the result was 2.77 (3 of 3 replicates; controls 5 of 9). With S89E S93D Q96N the result was nd (0 of 3 replicates; controls 1 of 9). For P54N S89I R90T, the assay gave 5.12 (1 of 3 replicates; controls 2 of 9).

Variant L27C S89F F95Q showed 4.85 (3 of 3 replicates; controls 0 of 9). Variant K50C S89F S93E showed 4.40 (3 of 3 replicates; controls 1 of 9). Variant Y30D N51Q S89M gave 2.85 (3 of 3 replicates; controls 1 of 9). For S89H F95P F98A, the assay gave 2.59 (2 of 3 replicates; controls 1 of 9). With A32C S89Y R90P the result was 3.65 (1 of 3 replicates; controls 2 of 9). With S88L S89V F98H the result was 2.20 (3 of 3 replicates; controls 4 of 9). Variant D25Q S89R R90T showed 4.05 (3 of 3 replicates; controls 4 of 9).

Variant G49S N51E S89N showed 3.33 (3 of 3 replicates; controls 3 of 9). Variant Y29P K50N S89G showed 2.94 (3 of 3 replicates; controls 1 of 9). For R28A S89H R90A, the assay gave 2.42 (3 of 3 replicates; controls 1 of 9). Variant S89K S92L F95H gave 2.00 (3 of 3 replicates; controls 1 of 9). With L27D S89C D91Y the result was 3.57 (3 of 3 replicates; controls 3 of 9).

Repeated from above, the 6 best binders with a signal in all replicates:

| changes | mean log10 Kd (nM) | seen in | signal with controls |
|---|---|---|---|
| R28K N52V S89T | 1.76 | 3 of 3 | 6 of 9 |
| S89K S92L F95H | 2.00 | 3 of 3 | 1 of 9 |
| S88L S89V F98H | 2.20 | 3 of 3 | 4 of 9 |
| S26Q N52V S89K | 2.21 | 3 of 3 | 6 of 9 |
| S55Q S89E Q96M | 2.23 | 3 of 3 | 2 of 9 |
| D25A S89C F95S | 2.33 | 3 of 3 | 1 of 9 |